Experimental findings from PubChem BioAssay (NCI) are described below.

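Grown in 96-well plates, cells were treated for 48 hours with each compound at five concentrations. Insufficient inhibition: endpoint recorded as highest concentration tested. TGI: concentration producing complete growth inhibition.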

The subject of this assay is NCI-H23 lung. Briefly: DTP human tumour cell line panel, 48 h.

`CC1C(=O)C(C)C(c2ccccc2)N(C)C1c1ccccc1` (stereo unspecified) had a TGI above 100 µM.
